One molecule from ChEMBL document CHEMBL1141563, “Novel inhibitors of the Gardos channel for the treatment of sickle cell disease” (J Med Chem, 2008) can be followed below.

By UniProt entry, the sequences of proteins in these tests, tags left out.
UniProt O15554, whole entry: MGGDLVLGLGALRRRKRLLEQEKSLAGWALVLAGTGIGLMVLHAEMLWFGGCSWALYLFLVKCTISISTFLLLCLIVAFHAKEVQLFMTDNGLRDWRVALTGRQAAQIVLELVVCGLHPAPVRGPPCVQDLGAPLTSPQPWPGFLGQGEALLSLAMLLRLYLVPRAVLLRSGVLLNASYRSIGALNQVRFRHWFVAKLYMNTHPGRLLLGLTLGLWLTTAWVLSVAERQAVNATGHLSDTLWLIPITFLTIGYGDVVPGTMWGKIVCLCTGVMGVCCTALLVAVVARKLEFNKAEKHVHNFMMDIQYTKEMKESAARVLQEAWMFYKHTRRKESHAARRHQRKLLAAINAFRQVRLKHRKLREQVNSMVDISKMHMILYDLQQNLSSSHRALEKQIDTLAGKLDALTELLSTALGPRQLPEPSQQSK

This assay concerns the target Intermediate conductance calcium-activated potassium channel protein 4 (Homo sapiens, UniProt O15554). The experiment in a line: Inhibition of Gardos channel in human RBC assessed as inhibition of ionomycin-stimulated [86Rb] efflux.

As usually defined, the IC50 is the concentration needed to halve the response being measured. Regarding `NC(=O)C(c1ccccc1)(c1ccc(F)cc1)c1ccc(F)cc1` [SENICAPOC], the IC50 amounted to 12 nM.
